Assay results published in paper PMC8333062, “Chemical tools for epichaperome-mediated interactome dysfunctions of the central nervous system” (Nature Communications, 2021).
This is a selection: effects in other tests are not listed, and their absence says nothing.

How the values were obtained:
PAMPA-BBB permeability = conditions: porcine polar brain lipid, pH 7.4, 16 h; mean±SD, n=3
[1] = system: HSP90 pools in JNPL3 (AD transgenic) mouse brain lysate; experiment: Fluorescence polarization (FP) competitive binding, cy3B-GM; conditions: read-out: FP relative affinity; displacement of cy3B-GM, 24 h, 4 °C; mean±SD, n=3

In the case of CC(C)CNCCn1c(Cc2cc3c(cc2I)OCO3)nc2c(N)nc(F)nc21, the PAMPA-BBB (PAMPA-BBB permeability) is reported as 12.3±1.5 10-6 cms-1 and the EC50 [1] is reported as 7.2 nM.

With CC(C)(C)CNCCn1c(Cc2cc3c(cc2I)OCO3)nc2c(N)nc(F)nc21 the PAMPA-BBB (PAMPA-BBB permeability) was 13.1±0.3 10-6 cms-1 and the EC50 [1] was 7.8 nM.

With CC(C)(C)NCCn1c(Cc2cc3c(cc2I)OCO3)nc2c(N)nc(F)nc21 the PAMPA-BBB (PAMPA-BBB permeability) was 13.5±1.5 10-6 cms-1 and the EC50 [1] was 198 nM.

In the case of CC(C)NCCn1c(Cc2cc3c(cc2I)OCO3)nc2c(N)nc(F)nc21, the PAMPA-BBB (PAMPA-BBB permeability) is reported as 5.2±2.6 10-6 cms-1 and the EC50 [1] is reported as 219 nM.
